Experiment: Phase 1 clinical study / Study 101: plasma epinephrine pharmacokinetics
Format: in vivo
Conditions: human, 0.5 mg IM, read-out: mean baseline-corrected Cmax
Protocol: Nor did the subject participate in Treatment D.
Blood samples were collected prior to dosing at 60, 30, and 0 minutes before dosing, and after dosing at 2, 5, 7, 10, 15, 20, 25, 30, 45, 60, 90, 120, 180, 240, and 360 minutes. […] Blood samples were analyzed in 8 runs with between run accuracy of −3.66% to 4.02% and precision of 1.30% to 9.94%. […] Recovery was >75% and freeze-thaw, short-term and long-term stability (584 days) were all shown to be acceptable; the analyte was stable under all conditions tested.
Baseline correction was accomplished using the average of the measured concentrations at nominal times of −60, −30, and 0 minutes before dosing.
Each patient was provided each treatment of the trial with 72-hour washout periods between each treatment, beginning with a 3.5 mg intranasal dose, followed by a 0.3 mg intramuscular dose, followed by a 0.5 mg intramuscular dose, and concluding with a 5.5 mg intranasal dose, with a safety follow-up performed 3 to 5 days after the final dose was administered. The primary endpoints of the study were pharmacokinetic measurements and assessments of comparative bioavailability, while the secondary endpoints were safety concerns and pharmacodynamic assessments.

Compound: CNC[C@H](O)c1ccc(O)c(O)c1 [Epinephrine IM, epinephrine]
- Cmax: 396 µg/mL

Reference: US20260108687A1 (Belhaven BioPharma Inc., priority 2024, published 2026)
